Most compounds without a hit are left out; they make up all but 1.8% or so of the library.
RAD54 inh = RAD54 (human) branch migration inhibition; hit rate 0.14% among 360,000; inhibition, % at 10.4 µM; RAD54 Holliday junction branch migration, FAM/BHQ fluorescence; Q92698; AID 602329;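 active = mean normalized replicate activity at least 40 and at least half of replicates scoring 40 or more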;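 note: 0% = median of neutral control wells and 100% = median of positive control wells; inhibitors cause a drop in the FAM fluorescence signal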
RAD52 inh = inhibitors of human RAD52 DNA annealing. inhibition, % at 18.7 µM. recombinant RAD52 DNA annealing, FRET fluorescence. P43351. hit rate 0.46% among 360,000;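 active = every replicate showing at least 50% inhibition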
SIRT5 block = sirtuin-5 (human) deacylase inhibition. Q9NXA8. Purified SirT5, succinyl-peptide AMC, trypsin-coupled fluorescence. inhibition, % at 15 µM. hit rate 1.1% among 330,000; in the data active = inhibition above about 15%
MLL AF4-AF9 inh = inhibitors of human MLL-AF4/AF9 interaction | P42568 | inhibition, % at 10 µM | AlphaScreen, biotin-AF4 peptide binding to FLAG-AF9 | AID 651704 | hit rate 0.47% among 350,000;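 active = every replicate reaching a set inhibition limit, whatever the replicate mean, cut at about 25% in these data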;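 note: 0% = plate neutral control median and 100% = total signal loss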
E-sel inducer = induces E-selectin expression in human endothelial cells; P16581; HUVEC E-selectin immunofluorescence imaging; normalized: neutral wells 0, TNF-alpha wells 100; activation, % at 7.58 µM; hit rate 0.37% among 260,000; AID 686992;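 active = mean E-selectin-positive cell signal at least 10% of the positive control, reached in at least 60% of replicates, without over 20% cell loss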
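Test system: HUVEC | Signal: Immunofluorescence imaging | Read-out: Percent E-selectin-positive cells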
Yeast UUG start = yeast start codon fidelity modulation | S. cerevisiae UUG-firefly luciferase reporter, luminescence/redox ratio | activity score, % at 18.7 µM | 350,000 tested, 0.13% active;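 active = replicate mean at a twofold rise or more, about +100% in these data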;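 also: firefly luciferase made from a UUG start codon reports start codon fidelity; reporter light over untreated wells divided by growth signal over untreated wells; some hits fall short of that in this replicate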
Starred values were filed as active, the others as inactive; . = not tested or not shown; ! = not confirmed by another sample.

Letter code: A = RAD54 inh; B = RAD52 inh; C = SIRT5 block; D = MLL AF4-AF9 inh; E = E-sel inducer; F = Yeast UUG start
1	CN(C)S(=O)(=O)c1cccc(NC(=S)N/N=C/c2cccc(O)c2)c1
  A = .; B = -7.1; C = 3.2; D = 2.2; E = .; F = .
2	CN(C)S(=O)(=O)c1cccc(NC(=S)N/N=C/c2cc(Br)ccc2O)c1
  A = 4.3; B = -43.3; C = 29.1*; D = 15.6; E = .; F = -14.1
3	C[C@H](CO)N1C[C@H](C)[C@H](CN(C)C(=O)Nc2ccccc2C(F)(F)F)OCc2cnnn2CCCC1=O
  A = -0.1; B = -0.7; C = 15.8*; D = -0.9; E = .; F = -9.4
4	C[C@H]1CN([C@@H](C)CO)C(=O)CCCn2nncc2CO[C@@H]1CN(C)C(=O)CCCN(C)C
  A = -3.6; B = -5.1; C = 22.1*; D = -3.9; E = 0.3; F = 2.2
5	C[C@@H]1CN([C@@H](C)CO)C(=O)CCCn2nncc2CO[C@H]1CN(C)C(=O)Nc1ccc(N2CCN(C)CC2)cc1
  A = 5.5; B = 58.2*!; C = 1.9; D = 11.7; E = 0.0; F = -8.3
6	Cc1noc(C)c1NC(=O)N(C)C[C@H]1OCc2cn(nn2)CCCC(=O)N([C@@H](C)CO)C[C@@H]1C
  A = -6.8; B = -9.4; C = 15.7*!; D = -2.4; E = 0.0; F = -5.3
7	COc1ccc2c3c([nH]c2c1)[C@H](CO)N(C(C)=O)CC31CN(C(=O)Nc2ccc(F)cc2)C1
  A = .; B = -10.7; C = -1.2; D = 1.8; E = -0.3; F = .
8	C[C@H](CO)N1C[C@H](C)[C@H](CN(C)Cc2cccc(C(=O)O)c2)Oc2ncc(C#CCN(C)C)cc2C1=O
  A = -7.6; B = -1.1; C = -4.0; D = 2.8; E = .; F = -1.4
9	COc1ccc2c3c(n(C)c2c1)[C@H](CO)N(C)CC31CCN(CC2CC2)CC1
  A = .; B = .; C = .; D = 0.8; E = 0.1; F = .
10	C[C@H](CO)N1C[C@H](C)[C@@H](CN(C)C(=O)Nc2ccc(N3CCN(C)CC3)cc2)OCc2cnnn2CCCC1=O
  A = -13.2; B = 54.7*!; C = 0.9; D = -1.9; E = 5.9; F = -2.6
11	COc1cccc(NC(=O)N(C)C[C@@H]2OCc3cn(nn3)CCCC(=O)N([C@H](C)CO)C[C@H]2C)c1
  A = -1.0; B = -9.0; C = 23.2*!; D = -0.6; E = -0.2; F = -3.7
12	C[C@@H]1CN([C@H](C)CO)C(=O)CCCn2cc(nn2)CO[C@@H]1CN(C)C(=O)Nc1ccc(N2CCCCC2)cc1
  A = -1.2; B = 1.4; C = -1.7; D = 9.4; E = 0.0; F = .
13	C[C@@H]1CN([C@H](C)CO)C(=O)CCCn2cc(nn2)CO[C@H]1CN(C)C(=O)Nc1ccc(N2CCN(C)CC2)cc1
  A = 8.3; B = 62.4*; C = 8.7; D = 1.4; E = -0.1; F = -8.2
14	COc1ccc(NC(=O)N2CC3(C2)CN(C(=O)c2cccnc2)[C@H](CO)c2[nH]c4cc(OC)ccc4c23)cc1
  A = .; B = 5.3; C = -0.5; D = 0.1; E = 0.1; F = .
15	CO[C@H]1CN(C)C(=O)c2cc(NC(=O)c3ccccc3)ccc2OC[C@H](C)N(C(=O)C2CC2)C[C@@H]1C
  A = 4.4; B = 11.1; C = 4.5; D = -0.4; E = 0.0; F = 17.4
16	CC(C)(C)c1n[nH]c2c1CCCC2
  A = .; B = -4.2; C = 41.8*; D = 2.9; E = 7.3; F = .
17	CCCN1CCN(C(=O)c2ccc3nc(CC)c(CC)nc3c2)CC1
  A = -0.1; B = -15.9; C = 20.3*; D = -0.7; E = -0.1; F = -1.2
18	CCc1nc2ccc(C(=O)N3CCN(CC)CC3)cc2nc1CC
  A = -4.8; B = -8.2; C = -1.4; D = -0.7; E = .; F = -12.1
19	C/C(=N/NC(=O)CNC(=O)CCc1ccccc1)c1ccc(Cl)c(Cl)c1
  A = .; B = -13.2; C = 16.3*; D = 2.0; E = -0.2; F = .
20	O=C(Cc1ccc(Cl)cc1)Nc1ccccc1Sc1ccccc1
  A = -1.0; B = .; C = .; D = .; E = .; F = -21.5
21	O=C(CCl)Nc1ccccc1Sc1ccccc1
  A = -1.2; B = .; C = .; D = .; E = .; F = 508.5*
22	COCC(=O)N1CCCCN2[C@@H](CO)[C@H](c3ccc(C#Cc4ccc(OC)cc4)cc3)[C@@H]2C1
  A = 2.5; B = 7.2; C = 1.4; D = 3.7; E = 0.5; F = 24.7
23	COc1ccc(C#Cc2ccc([C@H]3[C@H](CO)N4CCCCN(C)C[C@@H]34)cc2)cc1
  A = 3.3; B = 63.3*; C = 3.4; D = 4.7; E = 0.2; F = 2.6
24	COc1ccc(C#Cc2ccc([C@H]3[C@H]4CN(C)CCCCN4[C@H]3CO)cc2)cc1
  A = -2.4; B = 51.8*; C = 3.3; D = 4.8; E = 0.4; F = 40.1
25	CCCN1[C@@H]2c3ccc(C4=CCCC4)c(=O)n3C[C@@H]2[C@@H](CO)[C@@H]1C(=O)NCC
  A = -3.7; B = -46.1; C = 17.7*; D = -0.5; E = -1.0; F = 19.6

Continued:
Letter code: A = RAD54 inh; B = RAD52 inh; C = SIRT5 block; D = MLL AF4-AF9 inh; E = E-sel inducer; F = Yeast UUG start
26	CN(C)C(=O)[C@@H]1[C@@H](CO)[C@@H]2Cn3c(ccc(C4=CCCCC4)c3=O)[C@H]1N2C
  A = 9.7; B = 72.1*; C = -22.2; D = 1.0; E = 1.1; F = .
27	O=C(NC1CCCC1)[C@H]1N[C@H]2c3ccc(-c4cccc(F)c4)c(=O)n3C[C@H]2[C@@H]1CO
  A = .; B = 57.8*; C = -22.9; D = -1.1; E = -0.1; F = .
28	O=C(NC1CCCC1)[C@@H]1N[C@@H]2c3ccc(-c4cccc(F)c4)c(=O)n3C[C@@H]2[C@H]1CO
  A = .; B = -7.3; C = -25.1; D = -0.4; E = 0.5; F = .
29	CCCNC(=O)[C@H]1N[C@H]2c3ccc(C4=CCCCC4)c(=O)n3C[C@H]2[C@@H]1CO
  A = -5.9; B = 4.8; C = 17.2*; D = 1.6; E = -0.2; F = 14.2
30	CCCNC(=O)[C@H]1[C@H](CO)[C@H]2Cn3c(ccc(C4=CCCC4)c3=O)[C@H]2N1CCC
  A = 1.2; B = -39.7; C = 1.2; D = -2.1; E = -0.3; F = .
31	C[C@@H]1CN([C@H](C)CO)C(=O)c2cc(NC(=O)Cc3ccccc3)ccc2O[C@H]1CN(C)Cc1ccc(Cl)c(Cl)c1
  A = -4.0; B = -18.6; C = 12.6; D = -1.7; E = -8.0; F = -3.0
32	C[C@@H]1CCCCO[C@H](CN(C)Cc2ccc(C(=O)O)cc2)[C@H](C)CN([C@@H](C)CO)C(=O)c2cc(NS(=O)(=O)c3cn(C)cn3)ccc2O1
  A = -1.2; B = .; C = .; D = .; E = 0.0; F = 1.1
33	O=C(O)CCNc1nc(C(F)(F)F)nc2ccccc12
  A = .; B = -5.0; C = 48.4*; D = -1.4; E = .; F = .
34	C=CCS(=O)(=O)N1CCCC(N(C)CCc2ccc(OC)c(OC)c2)C1 (stereo not given)
  A = 5.0; B = -7.3; C = -0.4; D = 1.1; E = -0.2; F = 14.7
35	COc1ccc(CCN(C)C2CCCN(S(=O)(=O)N(C)C)C2)cc1OC (stereo not given)
  A = 6.1; B = -20.6; C = 15.2*; D = -2.4; E = .; F = 0.5
36	CCOC(=O)CSC1=C(C#N)C(c2ccc(C)s2)CC(=O)N1 (stereo not given)
  A = -2.3; B = -7.5; C = -3.8; D = 1.7; E = .; F = 11.5
37	CCSC1=C(C#N)C(c2ccc(C)s2)CC(=O)N1 (stereo not given)
  A = -12.7; B = -8.2; C = 15.7*; D = -2.0; E = .; F = -13.7
38	O=C(C[C@H]1C[C@@H]2c3cc(NC(=O)C4CCC4)ccc3O[C@@H]2[C@@H](CO)O1)NCc1ccccc1F
  A = -0.9; B = -18.4; C = -2.0; D = -2.1; E = -0.1; F = 13.0
39	CC[C@H]1C/C=C\Cc2ccccc2[C@@H](C(=O)C[C@@H](O)CC(C)=O)OC1=O
  A = -4.3; B = -3.7; C = 17.7*; D = -2.3; E = -2.2; F = -8.2
40	CC(=O)C[C@@H](O)CC(=O)[C@@H]1OC(=O)CCCCC/C=C/Cc2ccccc21
  A = 0.8; B = -15.7; C = 24.4*; D = 4.4; E = -0.2; F = -24.7
41	CC(=O)C[C@H](O)CC(=O)[C@H]1OC(=O)CCCCC/C=C/Cc2ccccc21
  A = -0.6; B = -15.1; C = .; D = 0.5; E = -0.2; F = -4.2
42	CC(=O)C[C@@H](O)CC(=O)[C@H]1OC(=O)[C@H](C)C/C=C\Cc2ccccc21
  A = -6.8; B = -11.7; C = -2.2; D = -1.4; E = 1.7; F = 24.1
43	CN1C(=O)c2cc(NC(=O)c3cccc(Cl)c3)ccc2OC[C@H]2O[C@@H](CC(=O)NC3CCCCC3)CC[C@H]21
  A = -10.7; B = .; C = .; D = .; E = -0.3; F = -2.9

Sorted by formula weight (largest number first): some entries from above
Letter code: A = RAD54 inh; B = RAD52 inh; C = SIRT5 block; D = MLL AF4-AF9 inh; E = E-sel inducer; F = Yeast UUG start
34	C=CCS(=O)(=O)N1CCCC(N(C)CCc2ccc(OC)c(OC)c2)C1 (stereo not given)
  A = 5.0; B = -7.3; C = -0.4; D = 1.1; E = -0.2; F = 14.7
36	CCOC(=O)CSC1=C(C#N)C(c2ccc(C)s2)CC(=O)N1 (stereo not given)
  A = -2.3; B = -7.5; C = -3.8; D = 1.7; E = .; F = 11.5
37	CCSC1=C(C#N)C(c2ccc(C)s2)CC(=O)N1 (stereo not given)
  A = -12.7; B = -8.2; C = 15.7*; D = -2.0; E = .; F = -13.7

Looked up above.
Yeast UUG start result of Cc1noc(C)c1NC(=O)N(C)C[C@H]1OCc2cn(nn2)CCCC(=O)N([C@@H](C)CO)C[C@@H]1C = -5.3
SIRT5 block result of O=C(O)CCNc1nc(C(F)(F)F)nc2ccccc12 = 48.4*
RAD52 inh result of CC[C@H]1C/C=C\Cc2ccccc2[C@@H](C(=O)C[C@@H](O)CC(C)=O)OC1=O = -3.7
